# Columns and labels:
# The chains behind the UniProt entries cited, without tags or fusion partners. Where a name states a change or a piece, a line headed by the entry shows the natural chain unless it says otherwise.
# UniProt P41145: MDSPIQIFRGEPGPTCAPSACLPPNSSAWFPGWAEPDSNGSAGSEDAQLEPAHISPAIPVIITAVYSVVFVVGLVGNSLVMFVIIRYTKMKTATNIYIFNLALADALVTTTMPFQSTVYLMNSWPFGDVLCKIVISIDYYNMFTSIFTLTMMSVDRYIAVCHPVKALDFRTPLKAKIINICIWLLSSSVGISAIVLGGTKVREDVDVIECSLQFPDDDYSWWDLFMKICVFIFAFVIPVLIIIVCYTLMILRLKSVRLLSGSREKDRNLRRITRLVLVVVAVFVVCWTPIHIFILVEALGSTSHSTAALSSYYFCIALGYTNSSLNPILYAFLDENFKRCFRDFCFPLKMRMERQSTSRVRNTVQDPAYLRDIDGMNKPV
# [1] = tested on: rhesus monkeys; conditions: intravenous infusion: bremazocine 0.0032, enadoline 0.001, 0.0032, ethylketazocine 0.01, 0.0032, U50488 0.1 mg/kg/h; cited from earlier work
# [2] = tested on: mice; conditions: cited from earlier work
# [3] = target: hKOR (Homo sapiens, UniProt P41145); test: β-arrestin2 recruitment (PathHunter); assay type: cell-based; conditions: normalized to vehicle and U50488 maximum response
# [4] = tested on: Sprague-Dawley rats; conditions: cited from earlier work
# [5] = tested on: B6.SJL mice; test: Warm-water (50 °C) tail withdrawal; assay type: in vivo, mouse; conditions: cumulative dose-response, s.c.
# [6] = tested on: mice; conditions: 0.3 and 5.0 mg/kg; cited from earlier work
# [7] = tested on: Sprague Dawley rats; conditions: cited from earlier work
# [8] = tested on: Sprague-Dawley rats; conditions: cited from earlier work; remark: listed apart in the source
# [9] = tested on: rats; conditions: rats, 5, 10 mg/kg; cited from earlier work
# [10] = tested on: rats; test: Conditioned place aversion; conditions: 10 mg/kg
SMILES,cocaine self-administration [1],food reinforcements [1],memory in the passive avoidance test [2],β-Arrestin Recruitment (PathHunter) Efficacy [3] [%],cocaine-induced hyperactivity [4],"EC50 (antinociception, % MPE) [5] [mg/kg]",novel object recognition task [6],sucrose intake and seeking ([7]; 5 and 10 mg/kg),"sucrose intake ([7]; intracerebroventricular, rats)",behavioral sensitization [8],water consumption [9],aversion to the drug-paired chamber [10]
CN(C(=O)Cc1cccc2occc12)[C@H]1CC[C@@]2(CCCO2)C[C@@H]1N1CCCC1,decreased,decreased,–,–,–,–,–,–,–,–,–,–
CN(C(=O)Cc1ccc(Cl)c(Cl)c1)[C@@H]1CCCC[C@H]1N1CCCC1,decreased,decreased,induces memory impairment,102.6,attenuate,6.7,disruption,reduce,increased sucrose intake,attenuate,suppress,significant aversion
CN(C(=O)Cc1ccc(Cl)c(Cl)c1)C1CCC2(CCCO2)CC1N1CCCC1 (stereo not drawn),–,–,–,–,–,–,–,–,–,–,suppress,–
